Source: ChEMBL document CHEMBL1154777, “Univalent and bivalent ligands of butorphan: characteristics of the linking chain determine the affinity and potency of such opioid ligands” (J Med Chem, 2009)

Species on record: Homo sapiens
Assay: Selectivity ratio of Ki for human mu opioid receptor to Ki for human kappa opioid receptor

Question: Which Ratio Ki does the source give for `O=C(O)CCCCCCCCC(=O)Oc1ccc2c(c1)[C@@]13CCCC[C@H]1[C@@H](C2)N(CC1CCC1)CC3` here?
Answer: The Ratio Ki was 2.4.
